Measured values: US9732085B2, “Pyridinone and pyrimidinone derivatives as factor Xia” (ONO PHARMACEUTICAL CO., LTD., priority 2011, dated 2017)

Sequences of proteins named here, by UniProt entry; tags and fusion partners are left off. Residues count along the entry.
UniProt P03951, 19-387 partner: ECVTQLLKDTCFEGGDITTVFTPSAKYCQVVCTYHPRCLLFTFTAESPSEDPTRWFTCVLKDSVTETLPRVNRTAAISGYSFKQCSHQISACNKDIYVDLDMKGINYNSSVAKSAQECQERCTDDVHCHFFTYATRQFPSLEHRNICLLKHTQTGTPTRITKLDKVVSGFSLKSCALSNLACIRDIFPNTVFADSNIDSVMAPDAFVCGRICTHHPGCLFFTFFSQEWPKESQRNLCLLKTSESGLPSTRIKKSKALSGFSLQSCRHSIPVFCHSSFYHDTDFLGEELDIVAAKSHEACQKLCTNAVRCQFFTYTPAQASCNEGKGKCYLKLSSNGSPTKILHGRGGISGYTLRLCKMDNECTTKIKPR
UniProt P03951, 388-625: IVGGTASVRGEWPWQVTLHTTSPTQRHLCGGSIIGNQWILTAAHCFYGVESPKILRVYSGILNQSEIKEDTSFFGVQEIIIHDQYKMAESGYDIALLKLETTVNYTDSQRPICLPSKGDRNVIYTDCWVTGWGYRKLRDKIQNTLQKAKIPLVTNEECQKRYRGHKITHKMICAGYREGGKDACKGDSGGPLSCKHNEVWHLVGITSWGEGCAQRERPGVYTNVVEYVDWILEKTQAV

Biological target: Human Factor XIa (Homo sapiens (Human), UniProt P03951)
Assay: Factor XIa enzyme activity (chromogenic substrate S-2366)
Type: biochemical
Conditions: human Factor XIa 0.1 U/mL, 300 μM S-2366, pH7.4; read-out: In vitro FXIa inhibitory activity IC50
Description: Inhibitory activities of compounds of the present invention against factor XIa, Xa, XIIa, IXa, VIIa, plasma kallikrein or thrombin were evaluated using appropriate purified proteases and synthetic substrates. The rate of hydrolysis of the chromogenic substrate by the relevant protease was continuously measured at 405 nm.
Inhibitory activity against each enzyme was calculated as % inhibition using the equation described below. % Inhibition=[[(rate without compound)−(rate with compound)](rate without compound)]×100%. Each half maximal inhibitory concentration (IC50) value was determined by plotting the concentration of compound of the invention against the % inhibition. (1-1) Factor XIa Enzyme Activity
Human Factor XIa (Haematologic Technologies Inc.) activity was measured at an enzyme concentration of 0.1 U/mL in 150 mM NaCl, 5 mM KCl, 1 mg/mL PEG6000, 50 mM HEPES-NaOH (pH7.4) with 300 μM S-2366 (pyroGlu-Pro-Arg-pNA, Chromogenix).

IC50: 4.9 nM
SMILES: COC(=O)Nc1ccc(-c2cnc([C@@H]3CCc4cc(-c5cc(Cl)ccc5-n5cc(Cl)nn5)cc(=O)n43)[nH]2)cc1 [Example 310, methyl[4-(2-{(3S)-7-[5-chloro-2-(4-chloro-1H-1,2,3-triazol-1-yl)phenyl]-5-oxo-1,2,3,5-tetrahydro-3-indolizinyl}-1H-imidazol-5-yl)phenyl]carbamate]
